Amino acid sequences for entries named in this document (tags omitted). Residues count along the entry.
UniProt P47871, 26-477 limits assumed: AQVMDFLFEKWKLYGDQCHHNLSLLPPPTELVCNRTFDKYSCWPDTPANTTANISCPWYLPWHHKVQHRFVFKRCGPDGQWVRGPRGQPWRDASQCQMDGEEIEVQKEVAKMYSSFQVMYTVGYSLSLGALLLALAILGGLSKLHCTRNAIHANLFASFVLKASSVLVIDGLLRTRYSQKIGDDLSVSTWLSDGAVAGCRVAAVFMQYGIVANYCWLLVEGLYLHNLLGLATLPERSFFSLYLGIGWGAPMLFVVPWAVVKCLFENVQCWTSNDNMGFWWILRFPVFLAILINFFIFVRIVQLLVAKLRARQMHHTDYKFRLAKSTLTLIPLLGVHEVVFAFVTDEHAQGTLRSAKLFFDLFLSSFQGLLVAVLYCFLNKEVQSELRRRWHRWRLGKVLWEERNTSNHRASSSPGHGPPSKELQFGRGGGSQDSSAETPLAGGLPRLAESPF

In US7807702B2 (Eli Lilly and Company, priority 2005, dated 2010):

Biological target: cloned human glucagon receptor (Homo sapiens, UniProt P47871)
Test: Glucagon Receptor (hGlucR) Binding Assay
Details: SPA with I-125 glucagon, 293HEK membranes

Ki: 0.0184 µM
SMILES: CCC(Sc1cc(C)c(-c2ccc(C(C)(C)C)cc2)c(C)c1)c1ccc(C(=O)NCc2nn[nH]n2)s1 (single isomer, unassigned)
